Measured values taken from ChEMBL document CHEMBL2417388, “Design and synthesis of (4E)-4-(4-substitutedbenzylideneamino)-3-substituted-2,3-dihydro-2-thioxothiazole-5-carbonitrile as novel A2A receptor antagonists” (Bioorg Med Chem, 2013).

Target: Adenosine receptor A2a (Homo sapiens, UniProt P29274)
Experiment: Agonist activity at human A2A receptor expressed in HEK293 cells assessed as stimulation of cAMP release at 1 uM after 15 mins
Type: functional, cell-based

Activity: 0.65 pmol/mL
Structure (SMILES): N#Cc1sc(=S)n(-c2ccccc2)c1/N=C/c1ccc(Br)cc1
